Measurements reported in US8513219B2, “Substituted phosphonates and their use in decreasing amyloid aggregates” (Queen Mary & Westfield College, University of London, priority 2007, dated 2013).

Legend:
[1] = test system: amyloid accumulation in H4 cells; assay: H4 cell amyloid accumulation (6E10 antibody, HRP/OPD absorbance); format: cell-based, human; settings: 1 μM, average of 2-3 experiments
[2] = test system: β-amyloid plaques; settings: APP transgenic mouse, 4 weeks; compounds 10 mg/kg i.p.; clioquinol 30 mg/kg p.o. or 10 mg/kg i.p.
[3] = test system: H4 cells (human neuroblastoma cell line); assay: H4 cell survival (MTT / Neutral Red assays); settings: for effect on H4 cell survival/viability: 5 days, single exposure; for cell survival (% controls), 5 day repeated doses / cell survival (% controls), 5 day single dose: H4 cells, 1 μM, average of 2-3 experiments
[4] = test system: zinc in the brain parenchyma; assay: zinc distribution in the CNS (autometallography) and systemic toxicity after 4 days administration in mice; settings: 10 mg/kg i.p.

Row | Substance | amyloid reduction (% controls), 5 day repeated doses [1] | amyloid reduction (% controls), 5 day single dose [1] | amyloid plaque load in brain [2] | effect on H4 cell survival/viability [3] | cell survival (% controls), 5 day repeated doses [3] | cell survival (% controls), 5 day single dose [3] | zinc staining signal in the central nervous system [4]
1 | Diethyl 5-indolyloxy methylphosphonate | 16 % controls | 33 % controls | reduced the plaque load | did not affect significantly cell survival | 76 % controls | 90 % controls | Decreases in the zinc signal
2 | Diethyl 7-oxomethylphosphonate-4-methylcoumarin | 19 % controls | 37 % controls | – | did not affect viability | 78 % controls | 104 % controls | Decreases in the zinc signal
3 | Diethyl 8-quinolyloxy methylphosphonate | 71 % controls | 36 % controls | – | – | 95 % controls | 89 % controls | –
4 | Diethyl N-(tert-butoxycarbonyl)-L-tyrosyl methyl ester methylphosphonate | 17 % controls | 10 % controls | – | – | 80 % controls | 99 % controls | –
5 | Diethyl N-acridonyloxymethyl phosphonate | 52 % controls | 57 % controls | – | – | 86 % controls | 116 % controls | –
